Source: patent US10023570B2 (Array BioPharma, Inc., priority 2015, dated 2018)

Amino acid sequences for entries named in this document (tags omitted). Residues count along the entry.
UniProt P07949, 29-1114 limits assumed: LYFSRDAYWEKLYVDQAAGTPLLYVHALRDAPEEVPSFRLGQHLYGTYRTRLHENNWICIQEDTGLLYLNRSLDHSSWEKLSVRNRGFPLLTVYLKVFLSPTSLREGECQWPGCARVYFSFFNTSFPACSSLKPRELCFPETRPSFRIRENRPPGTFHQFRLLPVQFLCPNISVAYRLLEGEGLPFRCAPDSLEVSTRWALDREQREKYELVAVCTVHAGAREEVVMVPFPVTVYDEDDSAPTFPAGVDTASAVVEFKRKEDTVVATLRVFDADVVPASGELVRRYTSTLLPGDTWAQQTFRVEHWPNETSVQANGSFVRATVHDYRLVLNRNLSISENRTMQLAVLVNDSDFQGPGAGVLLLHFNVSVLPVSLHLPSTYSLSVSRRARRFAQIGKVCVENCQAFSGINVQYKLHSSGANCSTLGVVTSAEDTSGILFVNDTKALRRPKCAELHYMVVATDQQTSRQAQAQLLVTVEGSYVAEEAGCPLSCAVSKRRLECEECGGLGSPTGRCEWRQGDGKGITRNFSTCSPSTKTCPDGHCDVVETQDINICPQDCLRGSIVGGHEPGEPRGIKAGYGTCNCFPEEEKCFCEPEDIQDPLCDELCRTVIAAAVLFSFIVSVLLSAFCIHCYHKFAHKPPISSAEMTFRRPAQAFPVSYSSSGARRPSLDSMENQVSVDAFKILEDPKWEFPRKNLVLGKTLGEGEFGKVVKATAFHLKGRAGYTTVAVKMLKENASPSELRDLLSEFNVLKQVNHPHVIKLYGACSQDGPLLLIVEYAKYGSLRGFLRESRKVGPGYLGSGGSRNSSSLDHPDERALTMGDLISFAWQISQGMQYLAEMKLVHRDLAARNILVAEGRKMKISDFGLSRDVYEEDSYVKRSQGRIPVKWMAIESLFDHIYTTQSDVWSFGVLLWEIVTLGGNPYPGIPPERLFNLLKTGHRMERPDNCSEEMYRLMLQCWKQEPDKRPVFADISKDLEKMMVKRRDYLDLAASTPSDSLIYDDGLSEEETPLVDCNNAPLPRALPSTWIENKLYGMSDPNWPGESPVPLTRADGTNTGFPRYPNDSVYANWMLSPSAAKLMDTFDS
UniProt P07949, 658-1114: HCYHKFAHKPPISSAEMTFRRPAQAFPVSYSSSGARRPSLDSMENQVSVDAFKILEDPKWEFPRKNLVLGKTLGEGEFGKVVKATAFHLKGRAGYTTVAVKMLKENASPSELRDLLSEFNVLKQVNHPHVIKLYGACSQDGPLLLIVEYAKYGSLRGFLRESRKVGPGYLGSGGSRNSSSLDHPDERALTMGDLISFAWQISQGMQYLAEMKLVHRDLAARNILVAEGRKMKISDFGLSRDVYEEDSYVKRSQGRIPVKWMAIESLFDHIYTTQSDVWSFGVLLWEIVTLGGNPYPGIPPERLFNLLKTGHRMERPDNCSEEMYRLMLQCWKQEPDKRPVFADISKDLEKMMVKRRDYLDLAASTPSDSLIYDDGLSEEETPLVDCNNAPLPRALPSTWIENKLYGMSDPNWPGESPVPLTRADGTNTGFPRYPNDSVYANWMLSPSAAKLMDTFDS
UniProt P35968, 20-1356: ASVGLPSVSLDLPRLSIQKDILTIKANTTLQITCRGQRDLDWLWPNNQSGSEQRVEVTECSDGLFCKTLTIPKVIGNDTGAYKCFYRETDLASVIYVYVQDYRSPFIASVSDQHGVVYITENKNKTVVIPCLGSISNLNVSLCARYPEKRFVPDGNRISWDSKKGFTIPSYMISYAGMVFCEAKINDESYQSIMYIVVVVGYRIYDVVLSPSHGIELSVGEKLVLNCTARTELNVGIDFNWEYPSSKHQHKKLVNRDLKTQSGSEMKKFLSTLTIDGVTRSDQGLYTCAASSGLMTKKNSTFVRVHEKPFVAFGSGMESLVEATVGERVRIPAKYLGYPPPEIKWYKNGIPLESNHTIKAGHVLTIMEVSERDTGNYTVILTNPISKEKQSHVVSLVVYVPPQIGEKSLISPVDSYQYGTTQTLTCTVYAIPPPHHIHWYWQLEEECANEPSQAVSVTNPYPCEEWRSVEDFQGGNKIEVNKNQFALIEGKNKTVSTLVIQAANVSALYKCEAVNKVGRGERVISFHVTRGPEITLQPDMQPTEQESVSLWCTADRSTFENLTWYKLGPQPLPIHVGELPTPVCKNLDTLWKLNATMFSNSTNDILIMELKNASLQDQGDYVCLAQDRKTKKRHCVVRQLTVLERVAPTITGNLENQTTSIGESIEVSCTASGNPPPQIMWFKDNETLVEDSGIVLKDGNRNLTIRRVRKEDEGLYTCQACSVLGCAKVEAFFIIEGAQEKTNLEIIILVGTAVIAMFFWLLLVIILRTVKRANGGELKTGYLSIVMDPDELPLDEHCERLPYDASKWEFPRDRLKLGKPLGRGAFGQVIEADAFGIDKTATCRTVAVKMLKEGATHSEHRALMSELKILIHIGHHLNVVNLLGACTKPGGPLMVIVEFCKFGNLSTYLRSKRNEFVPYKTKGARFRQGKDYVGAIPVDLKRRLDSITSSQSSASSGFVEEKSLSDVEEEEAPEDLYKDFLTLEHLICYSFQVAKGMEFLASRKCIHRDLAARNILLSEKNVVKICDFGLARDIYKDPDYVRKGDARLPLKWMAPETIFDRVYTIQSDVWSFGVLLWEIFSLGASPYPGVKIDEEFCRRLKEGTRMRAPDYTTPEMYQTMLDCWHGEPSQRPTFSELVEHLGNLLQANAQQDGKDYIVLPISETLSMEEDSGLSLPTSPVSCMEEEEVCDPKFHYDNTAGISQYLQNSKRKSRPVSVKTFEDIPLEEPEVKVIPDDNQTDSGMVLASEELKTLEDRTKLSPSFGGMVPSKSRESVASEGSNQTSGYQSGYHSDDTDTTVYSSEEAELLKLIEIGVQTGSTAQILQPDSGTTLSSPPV

Assays:
[1] = biological target: Kif5b-RET fusion protein in HEK-293 cells (Homo sapiens, UniProt P07949); assay: cell-based
[2] = biological target: N-terminal GST tagged recombinant human RET cytoplasmic domain (aa 658-end), wild type RET kinase (Homo sapiens (Human), UniProt P07949); assay: RET Enzyme Assay (HTRF KinEASE-TK), wild type RET; assay type: biochemical
[3] = biological target: human KDR protein in HEK-293 cells (Homo sapiens (Human), UniProt P35968); assay: KDR Cell Assay (phospho-KDR in HEK-293 cells expressing inducible KDR); assay type: cell-based; settings: pKDR Cell HEK 10% FBS IC50

## Cn1cc(-c2cc(-c3ccc(N4CCN(S(C)(=O)=O)CC4)nc3)c3c(C#N)cnn3c2)cn1 [Example 88]
[1]
  IC50: 43.3 nM
[2]; wild type RET, 1 mM ATP
  IC50: 9.8 nM

## CC(C)CS(=O)(=O)N1CCN(c2ccc(-c3cc(-c4cnn(C)c4)cn4ncc(C#N)c34)cn2)CC1 [Example 90]
[1]
  IC50: 4.3 nM
[2]; wild type RET, 1 mM ATP
  IC50: 5.2 nM

## CN(C)C(=O)N1CCN(c2ccc(-c3cc(-c4cnn(C)c4)cn4ncc(C#N)c34)cn2)CC1 [Example 132]
[1]
  IC50: 16.1 nM
[2]; wild type RET, 1 mM ATP
  IC50: 11.2 nM

## CC(C)N(C)C(=O)C1CCN(c2ccc(-c3cc(-c4cnn(C)c4)cn4ncc(C#N)c34)cn2)CC1 [Example 247, 1-(5-(3-cyano-6-(1-methyl-1H-pyrazol-4-yl)pyrazolo[1,5-a]pyridin-4-yl)pyridin-2-yl)-N-isopropyl-N-methylpiperidine-4-carboxamide]
[1]
  IC50: 167 nM
[2]; wild type RET, 1 mM ATP
  IC50: 48.1 nM

## CC(C)N1CCN(c2ccc(-c3cc(-c4cnn(C)c4)cn4ncc(C#N)c34)cn2)CC1 [Example 410, 4-(6-(4-isopropylpiperazin-1-yl)pyridin-3-yl)-6-(1-methyl-1H-pyrazol-4-yl)pyrazolo[1,5-a]pyridine-3-carbonitrile]
[1]
  IC50: 104 nM
[2]; wild type RET, 1 mM ATP
  IC50: 38.4 nM

## C[C@H](c1ccccc1)N1CCN(c2ccc(-c3cc(-c4cnn(C)c4)cn4ncc(C#N)c34)cn2)CC1 [Example 421, (R)-6-(1-methyl-1H-pyrazol-4-yl)-4-(6-(4-(1-phenylethyl)piperazin-1-yl)pyridin-3-yl)pyrazolo[1,5-a]pyridine-3-carbonitrile dihydrochloride]
[1]
  IC50: 11 nM
[2]
  IC50: 18 nM

## C[C@@H](c1ccccc1)N1CCN(c2ccc(-c3cc(-c4cnn(C)c4)cn4ncc(C#N)c34)cn2)CC1 [Example 422, (S)-6-(1-methyl-1H-pyrazol-4-yl)-4-(6-(4-(1-phenylethyl)piperazin-1-yl)pyridine-3-yl)pyrazolo[1,5-a]pyridine-3-carbonitrile dihydrochloride]
[1]
  IC50: 13.1 nM

## CC(C)(C)OC(=O)N1CC(n2cc(-c3cc(-c4ccc(N5CCN(Cc6ccccc6)CC5)nc4)c4c(C#N)cnn4c3)cn2)C1 [Example 594, tert-butyl 3-(4-(4-(6-(4-benzylpiperazin-1-yl)pyridin-3-yl)-3-cyanopyrazolo[1,5-a]pyridine-6-yl)-1H-pyrazol-1-yl)azetidine-1-carboxylate]
[3]
  IC50: 762 nM

Structures can show the parent of a compound that is named as a salt. Where two headings read alike, the source gives them in different places.
